Consider one sequence from ChEMBL document CHEMBL1140232, “Surprising alteration of antibacterial activity of 5"-modified neomycin against resistant bacteria” (2008).

For this assay, the system named is Pseudomonas aeruginosa. Put plainly: Antibacterial activity against aminoglycosides-resistant Pseudomonas aeruginosa ATCC 27853 expressing APH(3')-2b after 12 to 18 hrs. The assay is classed as functional. A digest of the protocol:
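Broth microdilution MIC. Culture diluted with broth to an absorbance of 0.08–0.1 at 625 nm. 100 μL of this was diluted into 10 mL broth and dispensed into 96-well plates. Each well received 50 μL inoculum plus 50 μL of a 2-fold compound dilution series. Plates were incubated at 35°C for 12–18 h. MIC is the lowest concentration that inhibits growth, from at least three repeats.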

In the case of GENTAMICIN, inhibition of growth (MIC) required 0.5 µg/mL.

As a reminder, the MIC is the smallest concentration in the dilution series that meets the test's criterion for growth inhibition. Low readings indicate a more susceptible organism, high ones a less susceptible organism.
